Laboratory results from patent US20080241276A1, “Portable bio-chemical decontaminant system and method of using the same” (published 2008).

Key:
Assay in all cases: Antimicrobial efficacy (FIG. 7), one minute
Conditions in all cases: lapse time one minute; below detection limit
MS2 = tested on: MS2
K. terrigena = tested on: K. terrigena
B. subtilis = tested on: B. subtilis

chlorine dioxide was tested, and the log kill (MS2) was “greater than 5 log”, the log kill (K. terrigena) was “greater than 6 log” and the log kill (B. subtilis) was “greater than 6 log”.
